Nrf2 inh: blocks Nrf2 signaling; A549 ARE-Fluc reporter, luciferase luminescence, 18-24 h; Potency, µM (highest dose often 46 µM), for the others: top-dose activity change, negative = inhibition, usual class: inhibitors; 360,000 tested, 2.1% active; AID 504444; note: potency is the fitted concentration of half-maximal effect; % is set by controls: 0 for no effect and ±100 for the full control effect; nearly all actives have a fitted effect of over 60% in size
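Nrf2 activity is the BugLite luminescence, read 15 min after reagent at room temperature, following CellTiter-Fluor cytotoxicity readout (30 min, 37C). Compound titrations were applied for 18-24 h to 5000 A549 ARE_Fluc cells/well in 5% FBS OPTI-MEM.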
Nrf2 activator: activators of Nrf2 (ARE) signaling | AREc32 ARE-luciferase reporter (MCF7-derived line), luminescence, 24 h | Potency, µM (top dose mostly 46.1 µM), for the others: at the top dose activation, actives largely listed as activators | 410,000 tested, 0.31% active; note: potency is the fitted concentration of half-maximal effect; % of control where 0% means no effect; nearly all actives have a fitted effect of over 65% in size
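Luciferase luminescence (Steady-Glo, 30 min at room temperature) served as the read-out of ARE activation in AREc32 cells treated with compounds for 24 hr at 37 deg C.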
GALK inh: inhibitors of human galactokinase; AID 1868; Purified GALK, Kinase-Glo residual ATP luminescence; P51570; Potency, µM (doses to about 57.5 µM), inactives show at the top dose activity change, negative = inhibition, hits mostly inhibitors; 270,000 tested, 0.007% active; note: potency is the fitted concentration of half-maximal effect; % is set by controls: 0 for no effect and ±100 for the full control effect
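GALK at 5 nM final was combined with compound, 35 uM ATP and 100 uM galactose in HEPES pH8.0 with MgCl2 and DTT. The reaction ran one hour at room temperature before luminescent ATP detection.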
PI4K2A block: blocks human PI4K2A kinase activity; 420,000 tested, 0.13% active; purified PI4K2A, ADP-Glo luminescence, 1 h; active compounds read low; Q9BTU6; activity change, negative = inhibition, % at 76.9 µM; AID 1346378; in the data active = activity change below about -50%; inconclusive = mostly about -30% to -49%;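 note: -100% = wells without enzyme as full effect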
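ADP-Glo luminescence measured ADP generated by PI4K2A enzyme (4 ug/mL before mixing) with 1.2 mM PI substrate (pre-mix) and 300 microM ATP (pre-mix). Tris pH7.5 buffer with MgCl2, Triton X-100; 1 h reaction at ambient temperature.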
miR-21 FLuc: raises the signal of a miR-21 reporter | AID 2288 | 340,000 tested, under 10 active | Potency, µM (series often up to 38.3 µM), without a hit: at the highest dose reporter change, positive = more light | HeLa miR-21 FLuc reporter, luciferase, 48 h; active = well fitted rising curve with a large enough effect; inconclusive = small, poorly fitted or top-dose-only effect; inactive = no such curve, though single readings can be large or run the other way;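 further: % of control where 0% means no effect; miR-21 action dims this reporter so a rising signal means less miR-21 action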
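Compounds were titrated across several concentrations (up to approximately 40 uM) and incubated 48 hours with HeLa miR-21-FLuc reporter cells (miR-21 target sequence downstream of FLuc, endogenous miR-21). Readout was firefly luciferase luminescence after lytic detection reagent.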
A549 viability: kills or reduces viability of A549 cells in Nrf2 counter-screen. A549 ARE-Fluc cells, CellTiter-Fluor viability, 18-24 h. Potency, µM (top dose mostly 46 µM), inactives show top-dose activity change, negative = cytotoxicity, most hits filed as inhibitors. 390,000 tested, 0.16% active; note: potency is the fitted concentration of half-maximal effect; % is set by controls: 0 for no effect and ±100 for the full control effect
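A549 ARE_Fluc cells in 5% FBS OPTI-MEM were exposed to compounds in concentration-response for 18-24 h at 37 deg C. Viability was read by CellTiter-Fluor fluorescence (Ex 405/Em 525) after 30 min, before the luciferase read.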
* hit, by the source's call; ? = inconclusive; nt = no result. An excerpt weighted towards active compounds, which were near 2.2% of everything screened. Unless noted, calls come from the whole dose curve; as a rule, active = well fitted curve in the direction sought with a large enough effect; inconclusive = small, poorly fitted or top-dose-only effect, or another doubt; inactive = no such curve, though single readings can be large; an effect the other way counts as inactive or inconclusive.

Screens by letter: A = Nrf2 inh; B = Nrf2 activator; C = GALK inh; D = PI4K2A block; E = miR-21 FLuc; F = A549 viability
1: COc1cccc(/C=C2\Oc3ccc(O)cc3C2=O)c1O
  A = -6% | B = -1% | C = 8% | D = -61* | E = 26% | F = 16%

2: CC(C)C[C@H](NC(=O)[C@H](Cc1ccccc1)NC(=O)c1cnccn1)B(O)O
  A = nt | B = nt | C = nt | D = 3 | E = nt | F = nt

3: O=C1/C(=C/c2ccsc2)CC/C1=C\c1cccs1
  A = nt | B = nt | C = nt | D = -4 | E = nt | F = nt

4: O=C(Nc1ccccc1Cl)c1cc2ccccc2o/c1=N\O
  A = ? | B = 1.3µM* | C = 2% | D = -4 | E = -44% | F = -5%

5: O=C(O)c1ccccc1-c1c2cc(I)c(=O)c(I)c-2oc2c(I)c(O)c(I)cc12
  A = -27% | B = -1% | C = nt | D = ? | E = nt | F = 9.2µM*

6: O=c1[nH]nc(Sc2ncnc3sccc23)n1CCc1ccccc1
  A = 15µM* | B = ? | C = -4% | D = 6 | E = ? | F = -5%

7: Cc1cc(S(=O)(=O)NC2CCCCC2)ccc1-n1cnnn1
  A = 12µM* | B = -1% | C = 5% | D = 5 | E = -1% | F = -6%

8: CN(C)S(=O)(=O)c1cccc(C(=O)N/N=C\c2ccnc3ccccc23)c1
  A = nt | B = nt | C = nt | D = -7 | E = nt | F = nt

9: O=C(CN1CCN(c2ncc(C(F)(F)F)cc2Cl)CC1)NCCNc1ncc(C(F)(F)F)cc1Cl
  A = 15µM* | B = 0% | C = 0% | D = -1 | E = -1% | F = ?

10: NNC(=O)CN1CCN(c2ncc(C(F)(F)F)cc2Cl)CC1
  A = -29% | B = 0% | C = 1% | D = 1 | E = 12% | F = -1%

11: O=C(CSc1nc2ccccc2n1S(=O)(=O)c1cccc([N+](=O)[O-])c1)NCCc1ccccc1
  A = 18µM* | B = 0% | C = nt | D = 0 | E = -25% | F = ?

12: O=C(O)c1ccccc1C(=O)Nc1ccc(Oc2cccc3ccccc23)cc1
  A = 21µM* | B = -2% | C = -4% | D = -3 | E = ? | F = -10%

13: Cc1cccc(Oc2ccc(NC(=O)c3ccccc3C(=O)O)cc2)c1C
  A = -2% | B = 0% | C = -7% | D = 1 | E = 0% | F = 0%

14: O=C(c1cc(COc2cccc(C(F)(F)F)c2)on1)N1CCC(c2ccccc2)CC1
  A = 13µM* | B = 0% | C = -6% | D = -3 | E = -4% | F = -19%

15: Cc1cccc(C)c1OCc1cc(C(=O)N2CCC(c3ccccc3)CC2)no1
  A = 30% | B = 1% | C = 4% | D = 2 | E = -50% | F = 13%

16: COc1cccc(OCc2cc(C(=O)N3CCC(c4ccncc4)CC3)no2)c1
  A = 5.2µM* | B = 3% | C = 0% | D = -1 | E = 22% | F = -17%

17: O=C(c1cc(COc2cccc(C(F)(F)F)c2)on1)N1CCC(c2ccncc2)CC1
  A = 13µM* | B = 2% | C = -4% | D = -1 | E = -1% | F = -12%

18: CC(=O)c1ccc(OCc2cc(C(=O)N3CCC(c4ccncc4)CC3)no2)cc1
  A = 0% | B = 8% | C = -2% | D = -6 | E = 17% | F = 1%

19: O=C(c1cc(COc2cccc(C(F)(F)F)c2)on1)N1C[C@@H]2CCC[C@H]1C2
  A = ? | B = 3% | C = -1% | D = -2 | E = -30% | F = -19%

20: Cc1ccc(OCCOc2ccc(Cl)cc2Cl)c(Br)n1
  A = nt | B = nt | C = nt | D = -2 | E = nt | F = nt

21: COc1ccccc1CNC(=O)N1CCN(Cc2nc3ccccc3c(=O)[nH]2)CC1
  A = nt | B = nt | C = nt | D = 6 | E = nt | F = nt

22: COC(=O)c1ccc(N=C2S/C(=C\c3cc(C)n(-c4cccnc4)c3C)C(=O)N2C)cc1
  A = 26µM* | B = 0% | C = -1% | D = 7 | E = -1% | F = ?

23: COc1cc(OC)c(NC(=O)c2csc(C)c2)cc1Cl
  A = 21% | B = 13µM* | C = 3% | D = 0 | E = -12% | F = -3%

24: COc1cc(OC)c(NC(=O)c2ccc(F)cc2)cc1Cl
  A = ? | B = 3% | C = 0% | D = 3 | E = -13% | F = 4%

25: COc1cc(OC)c(NC(=O)c2cc3ccccc3cc2O)cc1Cl
  A = 26µM* | B = 23% | C = nt | D = 1 | E = nt | F = -27%

26: O=[S+]([O-])(c1ccc2c(c1)OCCO2)N1CCN([S+](=O)([O-])c2c(F)cc(F)cc2Br)CC1
  A = 13% | B = nt | C = nt | D = nt | E = nt | F = -3%

27: Cc1ccccc1NC(=O)c1c2c(nc3ccccc13)C(=O)N(C1CCCCC1)C2
  A = 27% | B = 6% | C = nt | D = -3 | E = 1% | F = -3%

28: COc1cc(OC)c(NC(=O)c2c3c(nc4ccccc24)C(=O)N(C2CCCCC2)C3)cc1Cl
  A = 13µM* | B = -1% | C = nt | D = 1 | E = -1% | F = -8%

29: CC(C)c1csc(CN2CCCC(CNC(=O)c3cccc4ccccc34)C2)n1 (stereo not drawn)
  A = 16µM* | B = 1% | C = 5% | D = -2 | E = 6% | F = -10%

30: CC(C)c1csc(CN2CCCC(CCC(=O)NCc3ccccc3F)C2)n1 (stereo not drawn)
  A = -9% | B = 0% | C = 2% | D = -3 | E = 24% | F = 13%

Brought forward from above: 4 entries, followed by the next part.
Screens by letter: A = Nrf2 inh; B = Nrf2 activator; C = GALK inh; D = PI4K2A block; E = miR-21 FLuc; F = A549 viability
27: Cc1ccccc1NC(=O)c1c2c(nc3ccccc13)C(=O)N(C1CCCCC1)C2
  A = 27% | B = 6% | C = nt | D = -3 | E = 1% | F = -3%

28: COc1cc(OC)c(NC(=O)c2c3c(nc4ccccc24)C(=O)N(C2CCCCC2)C3)cc1Cl
  A = 13µM* | B = -1% | C = nt | D = 1 | E = -1% | F = -8%

29: CC(C)c1csc(CN2CCCC(CNC(=O)c3cccc4ccccc34)C2)n1 (stereo not drawn)
  A = 16µM* | B = 1% | C = 5% | D = -2 | E = 6% | F = -10%

30: CC(C)c1csc(CN2CCCC(CCC(=O)NCc3ccccc3F)C2)n1 (stereo not drawn)
  A = -9% | B = 0% | C = 2% | D = -3 | E = 24% | F = 13%

31: Nc1[nH]n(-c2ccccc2)c(=O)c1N=Nc1ccccc1[N+](=O)[O-]
  A = 16% | B = 6% | C = 3% | D = 7 | E = -56% | F = -7%

32: O=c1c2cc([N+](=O)[O-])cc([N+](=O)[O-])c2[nH]n1-c1ccccc1
  A = 2% | B = 3% | C = -4% | D = ? | E = -2% | F = 16µM*

33: Cc1nn(-c2ccccc2)c2sc(C(=O)NC3CCCCCCC3)cc12
  A = nt | B = nt | C = nt | D = 2 | E = nt | F = nt

34: Cc1ccc[n+](CC2OCc3ccccc3CO2)c1
  A = 7.3µM* | B = -1% | C = -1% | D = 3 | E = 1% | F = 0%

35: COC(=O)C1=C(C)N(c2ccc(C(=O)OC)cc2)C(=O)C1
  A = -13% | B = 3% | C = 0% | D = -2 | E = -14% | F = -8%

36: COC(=O)C1=C(C)N(c2cc(Cl)cc(Cl)c2)C(=O)C1
  A = 9.2µM* | B = ? | C = 0% | D = 14 | E = 23% | F = -15%

37: O=C(Nc1ccc2ccccc2c1)NC1CCCCN(Cc2ccc(Cl)cc2)C1=O (stereo not drawn)
  A = nt | B = nt | C = nt | D = -2 | E = nt | F = nt

38: COc1cc(C(=O)Nc2nc(C)c(Cc3ccc4c(c3)OCO4)s2)cc(OC)c1OC
  A = 15µM* | B = 4% | C = 2% | D = 1 | E = 25% | F = 0%

39: FC(F)(F)c1cc(-c2cccs2)nc(-n2cc(Br)cn2)n1
  A = -29% | B = 3.2µM* | C = -4% | D = 2 | E = -1% | F = -7%

40: O=C(NNc1ccccn1)C(c1ccccc1)c1ccccc1
  A = -8% | B = -1% | C = -2% | D = -9 | E = 0% | F = -8%

41: O=C(NNC(=O)C(c1ccccc1)c1ccccc1)c1ccccn1
  A = 15µM* | B = 13% | C = -1% | D = -14 | E = 19% | F = ?

42: COc1ccc(C(=O)NC(=S)N(Cc2ccccc2)Cc2ccccc2)cc1
  A = 18µM* | B = 5% | C = -2% | D = -4 | E = -9% | F = -23%

43: O=C(NC(=S)NCc1ccccc1)c1ccccc1F
  A = 9% | B = 2% | C = 0% | D = -4 | E = -15% | F = -3%

44: O=C(NC(=S)N(Cc1ccccc1)Cc1ccccc1)c1ccccc1F
  A = 12µM* | B = 7% | C = -3% | D = -2 | E = 12% | F = -19%

45: COc1cccc(N2CCN(CC(=O)NCc3ccc(Cl)cc3)CC2)c1
  A = nt | B = nt | C = nt | D = 0 | E = nt | F = nt

46: O=C(CSc1nc(-c2ccc(F)cc2)[nH]c1-c1ccc(F)cc1)Nc1ccc2c(c1)OCCO2
  A = ? | B = -3% | C = nt | D = -3 | E = ? | F = ?

Screens: PubChem BioAssay, National Center for Advancing Translational Sciences (NCATS)
